The source of these data is publication PMC4369186 (European journal of pharmacology, 2015).

For the assay, the target named is T1, hVAChT (Homo sapiens, UniProt Q16572).
T1 sequence (Q16572 1-532): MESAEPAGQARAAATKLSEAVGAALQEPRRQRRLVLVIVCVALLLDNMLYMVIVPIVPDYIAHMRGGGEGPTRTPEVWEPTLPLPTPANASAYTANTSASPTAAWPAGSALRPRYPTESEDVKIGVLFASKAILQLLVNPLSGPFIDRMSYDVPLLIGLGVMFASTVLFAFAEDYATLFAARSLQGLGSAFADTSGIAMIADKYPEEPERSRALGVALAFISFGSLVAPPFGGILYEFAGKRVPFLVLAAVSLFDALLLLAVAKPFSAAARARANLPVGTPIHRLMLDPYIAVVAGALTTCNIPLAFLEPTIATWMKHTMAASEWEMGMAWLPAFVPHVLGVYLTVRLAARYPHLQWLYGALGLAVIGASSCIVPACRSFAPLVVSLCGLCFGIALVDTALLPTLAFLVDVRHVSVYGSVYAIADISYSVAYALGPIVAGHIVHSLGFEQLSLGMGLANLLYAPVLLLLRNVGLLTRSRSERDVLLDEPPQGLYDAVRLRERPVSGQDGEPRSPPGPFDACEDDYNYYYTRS
As to the kind of experiment: Competitive binding assay with. The following applies: radioligand (-)-[^3H]TZ659 2 nM, test ligands 0.1 nM to 10 μM, 60 min, 25 °C.

For `O=C(c1ccc(F)cc1)c1cccc2c1C[C@@H](N1CCC(c3ccccc3)CC1)[C@H](O)C2` [FBBV], the Ki amounted to 7.17 ± 0.66 nM.
